Consider 1 substance from PMC7769078 (International Journal of Nanomedicine, 2020).

Data set [1] is described as follows: Plasma pharmacokinetics after oral administration to rats. The data set is classed as in vivo, Sprague-Dawley (SD) rats. The conditions noted are these: rat, 4 mg/kg GB.
Data set [2] relates to MDCK cell monolayers. The data set is described as follows: Permeation across MDCK cell monolayers. The data set is classed as in vitro ADME, canine. As to conditions: apical-to-basolateral, 20 μM GB, HBSS pH 7.4.
For data set [3], the system named is MDCK cells. The data set is described as follows: Cellular GB uptake in MDCK cells. The data set is classed as cell-based, canine. As to conditions: GB concentration 20 μM, 2 h.
The nature of data set [4]: Brain pharmacokinetics after oral administration to rats. The format is in vivo, Sprague-Dawley (SD) rats. As to conditions: rat, 4 mg/kg GB.
Data set [5] deals with MDCK cells. The data set is described as follows: MTT viability assay in MDCK cells. The conditions noted are these: 1–100 μM, 24 h. The data set is classed as cell-based, canine.

Consider Ginkgolide B [GB], for which, in data set [1], the “Cmax, plasma” value came out at 350 ± 40 ng/mL and the “T1/2, plasma” value is listed as 2.39 ± 0.32 h. Also, the “AUC0-t, plasma” value in data set [1] (48 h) turned out to be 3430 ± 370 ng·h/mL. Also, the Papp in data set [2] was 1.08 ± 0.13×10^−5 cm/s. Moreover, the “cellular GB uptake” value in data set [3] is listed as 0.98 ± 0.07 μg/mg protein. In addition, in data set [4], the “Cmax, brain” value was found to be 0.09 ± 0.01 µg/g and the “Tmax, brain” value is listed as 4.73 ± 0.51 h. For the same substance, the “AUC0-t, brain” value in data set [4] (48 h) turned out to be 1.05 ± 0.11 µg·h/g. Also, in data set [5], the “cytotoxic impact on MDCK cells” value was “no significant cytotoxicity”.
